Test results as given in patent US20020159969A1, “Small peptide-based therapeutics for reversing cancer-associated MUC-1 mucin-induced immunosuppression” (priority 1997, published 2002).

System: T cells
Test: T cell proliferation assay with allo PBLs (3H-thymidine incorporation) with synthetic MUC-1 tandem repeat peptides
Assay type: cell-based, human
Details: 50 U/ml IL-2 or 1 μg/ml anti-CD28 Mab
Protocol: Enriched T cell populations were purified from buffy coats obtained from normal red cross donors using nylon wool columns by previously reported procedures. See, e.g., Agrawal et al., J. Immunol. 157: 2089-95 (1996) and Agrawal et al., J. Immunol. 157: 3229-34 (1996). For the allo MLR, mitomycin C treated allogeneic PBLs were co-cultured with purified T cells in the presence or absence of affinity purified MUC-1 mucin or control OSM. In most of the experiments, the T cells were cultured 6-7 days in AIM V medium in the absence or presence of MUC-1, MUC-1 derivative or OSM at the indicated concentration. After this time, the T cells were harvested, washed and cultured as indicated.
For the experiment depicted in FIG. 2, purified T cells (10^6/ml) were cultured in AIM V medium with allo PBLs in the absence or presence of MUC-1, MUC-1 derivative or OSM 10 μg/ml for 6-7 days. T cells were harvested and plated in 96 well flat bottom plates at 10^5/well with allo PBLs (10^5/well), in the presence or absence of affinity purified MUC-1, MUC-1 derivative or OSM. Control cultures were treated with either 50 U/ml IL-2 or 1 μg/ml anti-CD28 Mab. After 4 days of culture, ^3H-thymidine (1 μCi/well) was added. The cells were harvested on the fifth day and ^3H-thymidine incorporation was measured by liquid scintillation.

With “IL-2: cytokine interleukin-2, control treatment at 50 U/ml” the “reversal of the reduction of T cell proliferation caused by MUC-1 tandem repeat peptides” value was “reversed”.
